Source: PubChem (Broad Institute)
SIRT5 inh: inhibitors of human sirtuin-5 desuccinylase | Q9NXA8 | Purified SirT5, succinyl-peptide AMC, trypsin-coupled fluorescence | inhibition, % at 15 µM | actives 1.1% (n = 330,000) | AID 652115; in the data active = inhibition above about 15%
RAD54 inh: blocks human RAD54 Holliday junction branch migration; inhibition, % at 10.4 µM; actives 0.14% (n = 360,000); AID 602329; FAM/BHQ fluorescence; Q92698;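 active = mean normalized replicate activity at least 40 and at least half of replicates scoring 40 or more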;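 also: inhibitors cause a drop in the FAM fluorescence signal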
AF4-AF9 inh: MLL-AF4/AF9 protein interaction inhibition | P42568 | AlphaScreen, biotin-AF4 peptide binding to FLAG-AF9 | inhibition, % at 10 µM | actives 0.47% (n = 350,000);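 active = every replicate reaching a set inhibition limit, whatever the replicate mean, cut at about 25% in these data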
E-sel inducer: E-selectin induction on HUVECs; AID 686992; P16581; HUVEC E-selectin immunofluorescence imaging; normalized: neutral wells 0, TNF-alpha wells 100; activation, % at 7.58 µM; actives 0.37% (n = 260,000);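 active = mean E-selectin-positive cell signal at least 10% of the positive control, reached in at least 60% of replicates, without over 20% cell loss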
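System: HUVEC, human umbilical vein endothelial cells; quantity: 3,000 cells/well; buffer or medium: EGM-2 medium, gelatin-coated wells; dosing: single-point compound dose; detection: immunofluorescence imaging; evaluation: % PE-positive cells; benchmarks: TNF-alpha, DMSO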
RAD52 inh: RAD52 (human) annealing inhibition. P43351. recombinant RAD52 DNA annealing, FRET fluorescence. inhibition, % at 18.7 µM. actives 0.46% (n = 360,000). AID 651710;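 active = every replicate showing at least 50% inhibition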
Yeast UUG start: modulators of start codon recognition fidelity in yeast; AID 602363; activity score, % at 18.7 µM; S. cerevisiae UUG-firefly luciferase reporter, luminescence/redox ratio; actives 0.13% (n = 350,000);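 active = replicate mean at a twofold rise or more, about +100% in these data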;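 note: firefly luciferase made from a UUG start codon reports start codon fidelity; reporter light over untreated wells divided by growth signal over untreated wells; some hits fall short of that in this replicate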
Large screens that a line does not name were inactive; ! = not confirmed by another sample. This is a sample that favours compounds with a hit; in the whole collection about 1.8% have one here.

O=S(=O)(c1cccc(Cl)c1)N1[C@@H]2CNC[C@H]1C2c1ccc(-c2cccc(F)c2)cc1 (stereo partly specified)	RAD52 inh 54! (no result: RAD54 inh, Yeast UUG start)
Cc1ccccc1S(=O)(=O)N1[C@@H]2CNC[C@H]1C2c1ccc(-c2ccccc2)cc1 (stereo partly specified)	RAD52 inh 55! (no result: RAD54 inh, Yeast UUG start)
COc1ccc(S(=O)(=O)N2[C@@H]3CNC[C@H]2C3c2ccc(-c3cccc(C)c3)cc2)cc1 (stereo partly specified)	RAD52 inh 65! (no result: RAD54 inh, Yeast UUG start)
N#Cc1ccc(-c2ccc(C3[C@H]4CNC[C@@H]3N4S(=O)(=O)c3ccc(-c4ccccc4)cc3)cc2)cc1 (stereo partly specified)	RAD52 inh 82 (no result: SIRT5 inh, RAD54 inh, Yeast UUG start)
Cc1noc(C)c1NC(=O)N[C@H]1CC[C@H](CCNC(=O)C2CCOCC2)O[C@@H]1CO	none
CN(C)CC(=O)N[C@@H]1C=C[C@H](CC(=O)NCCN2CCCCC2)O[C@H]1CO	none
COc1ccc2c3c([nH]c2c1)[C@H](CO)N(C(=O)CN(C)C)CC31CCN(CC2CCOCC2)CC1	none (no result: SIRT5 inh, RAD54 inh, Yeast UUG start)
Cc1ccc(-c2ccc(C3[C@H]4CNC[C@@H]3N4S(=O)(=O)c3cccc(C)c3)cc2)cc1 (stereo partly specified)	RAD52 inh 54! (no result: RAD54 inh, Yeast UUG start)
CC(C)(C)S(=O)(=O)/C(C#N)=N/Nc1ccc(C#N)cc1	none (no result: RAD54 inh, E-sel inducer, Yeast UUG start)
COc1cccc(N/N=C(\C#N)S(=O)(=O)C(C)(C)C)c1	SIRT5 inh 18 (no result: RAD54 inh, Yeast UUG start)
CC(=O)N[C@@H]1CC[C@@H](CCNC(=O)C2CCCCC2)O[C@H]1CO	none (no result: RAD54 inh, Yeast UUG start)
CN(C)CCCNS(=O)(=O)c1ccc(NC2CCCCCC2)c([N+](=O)[O-])c1	SIRT5 inh 29 (no result: E-sel inducer)
CCNc1ccc(S(=O)(=O)NCCN(C)C)cc1[N+](=O)[O-]	none (no result: RAD54 inh, Yeast UUG start)
CC(C)NC(=O)N(C)C[C@H]1Oc2c(NS(=O)(=O)c3ccc(Cl)cc3)cccc2C(=O)N([C@H](C)CO)C[C@H]1C	none (no result: E-sel inducer)
C[C@@H]1CN([C@H](C)CO)S(=O)(=O)c2ccc(C3=CCCCC3)cc2O[C@H]1CN(C)C(=O)Cc1ccccc1	SIRT5 inh 15
C[C@@H]1CN([C@H](C)CO)S(=O)(=O)c2ccc(C3=CCCCC3)cc2O[C@H]1CN(C)C(=O)Cc1ccncc1	SIRT5 inh 17 (no result: Yeast UUG start)
C[C@@H]1CN([C@@H](C)CO)S(=O)(=O)c2ccc(C3=CCCCC3)cc2O[C@@H]1CN(C)C(=O)Cc1ccccc1	SIRT5 inh 18
C[C@@H]1CN([C@@H](C)CO)S(=O)(=O)c2ccc(C3=CCCCC3)cc2O[C@H]1CN(C)C(=O)Cc1ccccc1	SIRT5 inh 16
CCC(=O)N(C)C[C@@H]1Oc2cc(C3=CCCCC3)ccc2S(=O)(=O)N([C@H](C)CO)C[C@H]1C	none (no result: SIRT5 inh, RAD54 inh, AF4-AF9 inh, RAD52 inh, Yeast UUG start)
CCC(=O)N(C)C[C@H]1Oc2cc(C3=CCCC3)ccc2S(=O)(=O)N([C@@H](C)CO)C[C@@H]1C	E-sel inducer 71
O=C(CCN1CCCCC1)N[C@@H]1CC[C@@H](CCNS(=O)(=O)c2ccccc2)O[C@H]1CO	none (no result: AF4-AF9 inh)
COc1ccc(S(=O)(=O)N(C)C[C@@H]2OCCCC[C@@H](C)Oc3ccc(NC(=O)Nc4ccc(F)cc4)cc3C(=O)N([C@H](C)CO)C[C@@H]2C)cc1	none
COc1ccc(S(=O)(=O)N(C)C[C@@H]2OCCCC[C@@H](C)Oc3ccc(NC(=O)Nc4ccc(F)cc4)cc3C(=O)N([C@@H](C)CO)C[C@@H]2C)cc1	SIRT5 inh 17
COc1ccc(NC(=O)Nc2ccc3c(c2)C(=O)N([C@@H](C)CO)C[C@@H](C)[C@H](CN(C)S(=O)(=O)c2ccc(F)cc2)OCCCC[C@@H](C)O3)cc1	SIRT5 inh 15 (no result: E-sel inducer)
C[C@@H]1CCCCO[C@@H](CN(C)S(=O)(=O)c2ccc(F)cc2)[C@H](C)CN([C@@H](C)CO)C(=O)c2cc(NC(=O)Nc3ccc(C(F)(F)F)cc3)ccc2O1	none (no result: E-sel inducer)
COc1ccc(NC(=O)Nc2ccc3c(c2)C(=O)N([C@H](C)CO)C[C@H](C)[C@@H](CN(C)S(=O)(=O)c2ccccc2)OCCCC[C@H](C)O3)cc1	SIRT5 inh 16 (no result: E-sel inducer)
COc1ccc(NC(=O)Nc2ccc3c(c2)C(=O)N([C@@H](C)CO)C[C@@H](C)[C@@H](CN(C)S(=O)(=O)c2ccc(F)cc2)OCCCC[C@H](C)O3)cc1	none (no result: E-sel inducer)
COc1ccc(NC(=O)Nc2ccc3c(c2)C(=O)N([C@H](C)CO)C[C@H](C)[C@@H](CN(C)S(=O)(=O)c2ccccc2)OCCCC[C@@H](C)O3)cc1	none (no result: E-sel inducer)
C[C@@H]1CCCCO[C@@H](CN(C)S(=O)(=O)c2ccc(F)cc2)[C@H](C)CN([C@H](C)CO)C(=O)c2cc(NC(=O)Nc3ccc(C(F)(F)F)cc3)ccc2O1	SIRT5 inh 15 (no result: E-sel inducer)
COc1ccc2c3c(n(C)c2c1)[C@H](CO)N(C(=O)c1cccc(F)c1)CC31CN(CC2CC2)C1	none (no result: RAD54 inh, Yeast UUG start)
C[C@@H]1CN([C@H](C)CO)C(=O)c2cc(-c3ccccc3F)cnc2O[C@@H]1CN(C)Cc1cccc(F)c1	none
C[C@@H]1CCCCO[C@@H](CN(C)C)[C@@H](C)CN([C@@H](C)CO)C(=O)c2cc(NS(=O)(=O)c3cccs3)ccc2O1	none
COc1ccc(S(=O)(=O)N(C)C[C@@H]2OCCCC[C@H](C)Oc3ccc(NC(=O)Nc4ccc(F)cc4)cc3C(=O)N([C@H](C)CO)C[C@@H]2C)cc1	none
COc1ccc(S(=O)(=O)N(C)C[C@H]2OCCCC[C@@H](C)Oc3ccc(NC(=O)Nc4ccc(F)cc4)cc3C(=O)N([C@@H](C)CO)C[C@H]2C)cc1	SIRT5 inh 17
COc1ccc(S(=O)(=O)N(C)C[C@H]2OCCCC[C@@H](C)Oc3ccc(NC(=O)Nc4ccc(F)cc4)cc3C(=O)N([C@@H](C)CO)C[C@@H]2C)cc1	SIRT5 inh 16
COc1ccc(S(=O)(=O)N(C)C[C@@H]2OCCCC[C@H](C)Oc3ccc(NC(=O)Nc4ccc(F)cc4)cc3C(=O)N([C@@H](C)CO)C[C@H]2C)cc1	none
C[C@]1(C(=O)NCc2cc(F)cc(C(F)(F)F)c2)C=C[C@@H](Cc2ccccc2)N1C(=O)c1ccccc1	SIRT5 inh 34
Cc1ccccc1NC(=O)COC(=O)c1n[nH]c(=O)c2ccccc12	none
O=C(COC(=O)c1n[nH]c(=O)c2ccccc12)Nc1ccccc1	SIRT5 inh 19 (no result: RAD54 inh, Yeast UUG start)
CCCN(C)C[C@@H]1Oc2cc(C#CC(C)(C)O)ccc2S(=O)(=O)N([C@@H](C)CO)C[C@@H]1C	none
CCNC(=O)Nc1ccc2c(c1)C(=O)N(C)[C@H]1CC[C@H](CC(=O)N[C@H](C)c3ccccc3)O[C@H]1CO2	none (no result: Yeast UUG start)
COc1ccc(/C=C/c2nc3ccccc3c(=O)n2-c2cccc(C(=O)O)c2)cc1	SIRT5 inh 18
O=C(C[C@H]1CC[C@H](NS(=O)(=O)c2ccccc2F)[C@H](CO)O1)NCCCN1CCOCC1	none
